Yeast mating assay B: variants of the scFv Ab-14

Target: peptide PDVDLGDISGINAS, taken from heptad repeat 2 (HR2) of SARS-CoV-2 spike.

Ab-14 is the parent antibody, in scFv form: VH, then a (GGGGS)3 linker, then VL. The heavy chain is unchanged in all variants.
VH: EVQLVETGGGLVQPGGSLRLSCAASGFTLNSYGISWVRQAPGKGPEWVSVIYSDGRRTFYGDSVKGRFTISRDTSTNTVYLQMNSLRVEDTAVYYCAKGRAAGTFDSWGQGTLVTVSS
VL: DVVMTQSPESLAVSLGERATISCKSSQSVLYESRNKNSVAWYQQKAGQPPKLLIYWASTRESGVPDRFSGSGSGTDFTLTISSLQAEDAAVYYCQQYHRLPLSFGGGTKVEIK

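The variants were designed computationally from a first round of random CDR variants and then made and measured. Their group label is 14L_En_Gibbs (En: ensemble of fine-tuned language models; Gibbs: Gibbs sampling). The assay is AlphaSeq: two haploid yeast populations carry antibody and antigen on their surface. After mating in shaken culture at 30 °C for 16 h, diploids were selected and their barcode pairs sequenced. The ratio of observed to expected reads was calibrated, replicate by replicate, on BCL2-family standards whose Kd was known from biolayer interferometry. Each pool was mated in six replicate cultures.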

The whole VL of each variant is written out.
Affinities are written as log10 Kd with Kd in nM; a lower number is a better binder.
Where no diploid with the target was found in that replicate, the entry reads "n.d.": below detection, most likely a poor binder, though not proof of it.

VL | replicates, log10 nM | signal with controls
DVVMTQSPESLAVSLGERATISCQFDMHIPYQGEQNASIAWYQQKAGQPPKLLIYGTTNRLTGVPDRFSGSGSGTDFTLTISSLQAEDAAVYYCQQYFKLPLSFGGGTKVEIK | 1.56 0.83 0.92 0.93 1.13 0.89 | 1 of 18 (3.10)
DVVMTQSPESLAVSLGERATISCMMHLCQNGYYQQNNNIAWYQQKAGQPPKLLIYDMNARMMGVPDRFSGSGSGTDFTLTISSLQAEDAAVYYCQQYGRLPLMFGGGTKVEIK | 0.92 0.72 0.90 0.52 0.75 1.01 | 2 of 18 (2.89)
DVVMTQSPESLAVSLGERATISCRMNKHMSGATEAKNSMAWYQQKAGQPPKLLIYGVEHRANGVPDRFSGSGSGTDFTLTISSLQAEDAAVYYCQQYHRLPLSFGGGTKVEIK | 0.67 0.68 0.68 0.64 0.79 0.93 | 1 of 18 (2.70)
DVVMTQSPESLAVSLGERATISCMLTNETDGNYGRANSVAWYQQKAGQPPKLLIYNAEELMTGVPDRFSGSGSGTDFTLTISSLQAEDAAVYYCQAYFRLPITFGGGTKVEIK | 1.19 0.99 0.86 0.75 0.76 1.03 | 0 of 18
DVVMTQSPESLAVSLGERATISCALTNEFESVSHHKNSIAWYQQKAGQPPKLLIYHTDQRCMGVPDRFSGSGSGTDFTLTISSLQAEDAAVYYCQQYATLPLSFGGGTKVEIK | 0.70 0.81 0.71 0.76 0.74 0.88 | 4 of 18 (2.31)
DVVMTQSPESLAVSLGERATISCHIQDDIGGAKEQFDSVAWYQQKAGQPPKLLIYSTEERSYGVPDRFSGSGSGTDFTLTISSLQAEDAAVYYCQQYYRLPLSFGGGTKVEIK | 0.26 0.18 0.17 -0.11 0.51 0.38 | 0 of 18
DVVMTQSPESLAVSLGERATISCNLSWKTIGFENEWMAVAWYQQKAGQPPKLLIYNTSERNAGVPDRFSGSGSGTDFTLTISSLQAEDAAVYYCQQYARLPLSFGGGTKVEIK | 0.94 1.01 0.76 1.03 0.78 0.89 | 1 of 18 (2.79)
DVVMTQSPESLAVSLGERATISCRIEDHIAEGEMRHNSIAWYQQKAGQPPKLLIYEEHMRMDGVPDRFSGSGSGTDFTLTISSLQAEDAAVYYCQMYSRLPLAFGGGTKVEIK | n.d. 3.51 3.47 n.d. 3.60 1.96 | 3 of 18 (2.73)
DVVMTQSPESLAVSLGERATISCMLDQMDSQMGVNTNNVAWYQQKAGQPPKLLIYGVVESRIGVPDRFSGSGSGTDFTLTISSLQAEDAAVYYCQQYHRLPLSFGGGTKVEIK | 1.67 1.37 1.48 n.d. 1.49 1.44 | 0 of 18
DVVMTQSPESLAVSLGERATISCQMEWHNSGLLEAKNSVAWYQQKAGQPPKLLIYGVEHRANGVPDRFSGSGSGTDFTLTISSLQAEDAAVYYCQQYMRLPLEFGGGTKVEIK | 0.35 0.22 0.55 0.31 0.28 0.66 | 1 of 18 (2.23)
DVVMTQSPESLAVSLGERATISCQLGKNQDGDTLSQNAIAWYQQKAGQPPKLLIYHDALRVDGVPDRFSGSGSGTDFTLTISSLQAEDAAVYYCQQYFRLPLLFGGGTKVEIK | 1.40 0.62 1.19 1.25 0.79 1.35 | 0 of 18
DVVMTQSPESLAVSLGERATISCKLTEAMASWRGARHNIAWYQQKAGQPPKLLIYDRTVTAPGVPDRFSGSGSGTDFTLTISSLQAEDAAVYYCQQYSRLPITFGGGTKVEIK | -0.15 0.05 0.13 0.06 0.32 0.35 | 0 of 18
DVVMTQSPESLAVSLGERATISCHITDLMYNNNEGMKNIAWYQQKAGQPPKLLIYDKNISVMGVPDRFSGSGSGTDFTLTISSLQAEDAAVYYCQQYFRLPLIFGGGTKVEIK | 0.06 -0.19 -0.24 -0.33 -0.31 -0.19 | 1 of 18 (1.17)
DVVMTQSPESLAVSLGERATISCVLGQNCSEYDMYCASIAWYQQKAGQPPKLLIYDAQHREAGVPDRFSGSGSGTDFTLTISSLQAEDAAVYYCQQYYRLPFVFGGGTKVEIK | 1.70 1.96 1.42 1.41 1.91 2.13 | 0 of 18
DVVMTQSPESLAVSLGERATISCQLHAYTQGFKRADGNIAWYQQKAGQPPKLLIYDISYRAIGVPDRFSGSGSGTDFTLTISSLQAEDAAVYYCQQYGRLPLSFGGGTKVEIK | 1.38 1.06 1.25 0.77 1.58 1.60 | 0 of 18
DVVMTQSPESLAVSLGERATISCNMGGTKEEQSNEIGNIAWYQQKAGQPPKLLIYEMNERFAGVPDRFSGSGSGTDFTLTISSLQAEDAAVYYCQQYFQLPLSFGGGTKVEIK | 2.40 1.27 1.70 1.16 3.29 2.27 | 1 of 18 (0.57)
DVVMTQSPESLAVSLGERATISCMISMEEAPAGQQESSIAWYQQKAGQPPKLLIYHGGTKSEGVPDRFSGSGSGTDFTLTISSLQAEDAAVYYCQQYNRLPLAFGGGTKVEIK | 0.88 0.58 0.70 0.52 0.85 0.78 | 0 of 18
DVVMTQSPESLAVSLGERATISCNIVGRVEDKQTENNAIAWYQQKAGQPPKLLIYDAHCRAGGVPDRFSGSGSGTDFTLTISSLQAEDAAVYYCQQYSRLPISFGGGTKVEIK | 1.44 0.90 2.07 1.65 1.55 1.40 | 0 of 18
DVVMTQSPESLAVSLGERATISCQLDWYNTTATASANNVAWYQQKAGQPPKLLIYDVAQRANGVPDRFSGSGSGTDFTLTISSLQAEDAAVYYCQQYMRLPLMFGGGTKVEIK | 0.02 0.01 -0.34 -0.51 -0.17 0.06 | 0 of 18
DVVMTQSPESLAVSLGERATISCNLMSHQGRYDVWKYSIAWYQQKAGQPPKLLIYEASIRLSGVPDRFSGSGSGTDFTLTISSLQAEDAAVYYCQQYFRLPLAFGGGTKVEIK | 1.26 0.71 0.83 0.54 0.67 1.58 | 0 of 18
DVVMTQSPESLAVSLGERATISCLIETLSQGMRLNWSAVAWYQQKAGQPPKLLIYEAHTLVQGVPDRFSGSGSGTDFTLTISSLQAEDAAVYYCQYYARLPLSFGGGTKVEIK | n.d. n.d. n.d. n.d. n.d. n.d. | 0 of 18
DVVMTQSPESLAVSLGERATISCHLGNEGDNQGNAKKSVAWYQQKAGQPPKLLIYDQSTVQLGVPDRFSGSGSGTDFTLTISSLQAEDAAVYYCQHYSRLPLTFGGGTKVEIK | n.d. 2.42 n.d. 2.45 n.d. n.d. | 0 of 18
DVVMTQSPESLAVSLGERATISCKMTTNLGHQANRKNSIAWYQQKAGQPPKLLIYEVDMVACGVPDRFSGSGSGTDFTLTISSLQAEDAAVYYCQQYMRLPLIFGGGTKVEIK | 1.15 2.03 1.83 1.37 2.41 1.99 | 0 of 18
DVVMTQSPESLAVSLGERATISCHIQDARGGLSSQWNSVAWYQQKAGQPPKLLIYSTEERSDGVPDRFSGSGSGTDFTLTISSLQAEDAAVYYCQQYHRLPLSFGGGTKVEIK | 0.03 0.43 -0.06 0.62 0.17 0.09 | 1 of 18 (1.98)

The first 4 entries again:

| VL | replicates, log10 nM | signal with controls |
|---|---|---|
| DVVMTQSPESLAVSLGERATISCQFDMHIPYQGEQNASIAWYQQKAGQPPKLLIYGTTNRLTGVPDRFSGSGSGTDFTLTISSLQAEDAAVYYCQQYFKLPLSFGGGTKVEIK | 1.56 0.83 0.92 0.93 1.13 0.89 | 1 of 18 (3.10) |
| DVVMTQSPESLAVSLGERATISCMMHLCQNGYYQQNNNIAWYQQKAGQPPKLLIYDMNARMMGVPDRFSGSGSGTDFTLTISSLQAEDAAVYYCQQYGRLPLMFGGGTKVEIK | 0.92 0.72 0.90 0.52 0.75 1.01 | 2 of 18 (2.89) |
| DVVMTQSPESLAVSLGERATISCRMNKHMSGATEAKNSMAWYQQKAGQPPKLLIYGVEHRANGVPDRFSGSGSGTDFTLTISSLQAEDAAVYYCQQYHRLPLSFGGGTKVEIK | 0.67 0.68 0.68 0.64 0.79 0.93 | 1 of 18 (2.70) |
| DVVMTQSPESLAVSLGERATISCMLTNETDGNYGRANSVAWYQQKAGQPPKLLIYNAEELMTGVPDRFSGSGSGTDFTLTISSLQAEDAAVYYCQAYFRLPITFGGGTKVEIK | 1.19 0.99 0.86 0.75 0.76 1.03 | 0 of 18 |

Values of this round are not directly comparable with the first-round values of the same sequences.
Empty control strains, which show no peptide, gave a signal in 4% of pairings with all light chain designs; the median was 2.64 and 95% of these signals were weaker than 1.59. No background was subtracted. For each scFv, signals with the empty controls are counted beside the result, with their mean in brackets.
The parent sequence was in this pool as ten entries: three were never detected, three once, and four in most replicates, with averages from 0.34 to 2.37.
In the paper, a design with two or fewer of six values counts as a poor binder.

From the AlphaSeq antibody data of Li et al. 2023 (doi:10.1038/s41467-023-39022-2), copy in the FLAb collection.